For 1 molecule, Ki results are on record in ChEMBL document CHEMBL4041501, “Isolation of Acacetin from Calea urticifolia with Inhibitory Properties against Human Monoamine Oxidase-A and -B” (J Nat Prod, 2016).

Chains of the proteins cited; added tags and fusions are not shown.
UniProt P21397, whole entry: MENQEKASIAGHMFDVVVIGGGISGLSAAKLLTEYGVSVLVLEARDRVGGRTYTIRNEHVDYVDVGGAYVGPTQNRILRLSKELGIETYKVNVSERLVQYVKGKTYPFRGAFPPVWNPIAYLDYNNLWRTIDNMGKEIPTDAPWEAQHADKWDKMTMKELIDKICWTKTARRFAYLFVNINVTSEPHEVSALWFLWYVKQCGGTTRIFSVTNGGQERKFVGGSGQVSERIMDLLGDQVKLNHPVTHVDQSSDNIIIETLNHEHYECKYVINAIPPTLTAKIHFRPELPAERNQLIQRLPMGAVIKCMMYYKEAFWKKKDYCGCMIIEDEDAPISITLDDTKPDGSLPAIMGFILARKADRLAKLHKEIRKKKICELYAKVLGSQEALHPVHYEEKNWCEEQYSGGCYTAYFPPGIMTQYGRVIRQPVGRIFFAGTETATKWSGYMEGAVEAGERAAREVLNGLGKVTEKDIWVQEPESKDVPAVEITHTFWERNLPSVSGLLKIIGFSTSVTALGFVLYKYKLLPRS
UniProt P27338, whole entry: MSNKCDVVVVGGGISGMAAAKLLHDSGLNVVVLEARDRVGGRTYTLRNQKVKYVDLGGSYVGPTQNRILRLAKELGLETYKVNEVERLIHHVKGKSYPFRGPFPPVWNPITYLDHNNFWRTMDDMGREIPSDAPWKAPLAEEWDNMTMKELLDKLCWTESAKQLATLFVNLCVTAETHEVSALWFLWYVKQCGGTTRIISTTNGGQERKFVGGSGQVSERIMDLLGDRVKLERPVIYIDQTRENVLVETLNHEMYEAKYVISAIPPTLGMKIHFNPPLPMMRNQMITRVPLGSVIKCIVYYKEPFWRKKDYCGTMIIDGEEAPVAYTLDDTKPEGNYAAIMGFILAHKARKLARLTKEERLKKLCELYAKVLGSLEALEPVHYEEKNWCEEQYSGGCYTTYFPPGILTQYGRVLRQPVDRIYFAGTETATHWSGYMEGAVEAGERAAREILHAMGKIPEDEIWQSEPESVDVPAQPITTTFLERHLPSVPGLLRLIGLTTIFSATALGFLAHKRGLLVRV

Broadly, the Ki is a dissociation constant, usually derived from enzyme kinetics or from competition with a known ligand. High values mean lower affinity, low ones higher affinity.

Assay [1] has as its target Amine oxidase [flavin-containing] A (Homo sapiens, UniProt P21397).
In assay [2] the target is Amine oxidase [flavin-containing] B (Homo sapiens, UniProt P27338).

As for `NNCCc1ccccc1` [PHENELZINE], the Ki in assay [1] turned out to be 163 nM; in assay [2] it was 124 nM.
